Molecular target: human SGLT2 (Homo sapiens (Human), UniProt P31639)
Assay: hSGLT2 inhibitory activity, sodium-dependent 14C-AMG glucose transport assay in CHO cells expressing hSGLT2
Format: cell-based
Settings: 14C-AMG uptake, CHO cells expressing hSGLT2, 37° C. for 2 h
Text: Human SGLT2 (hSGLT2) gene was amplified by PCR from cDNA-Human Adult Normal Tissue Kidney (Invitrogen, Carlsbad, Calif.). The hSGLT2 sequence was cloned into pcDNA3.1(+) for mammalian expression and were stably transfected into Chinese hamster ovary (CHO) cells. SGLT2-expressing clones were selected based on resistance to G418 antibiotic (Geneticin®, Invitrogen, Carlsbad, Calif.) and activity in the ^14C-α-methyl-D-glucopyranoside (^14C-AMG) uptake assay.
For sodium-dependent glucose transport assay, cells expressing hSGLT2 were seeded into a 96-well culture plate at a density of 5×10^4 cells/well in RPMI medium 1640 containing 10% fetal bovine serum. The cells were used 1 day after plating. They were incubated in pretreatment buffer (10 mM HEPES, 5 mM Tris, 140 mM choline chloride, 2 mM KCl, 1 mM CaCl2, and 1 mM MgCl2, pH 7.4) at 37° C. for 10 min. They were then incubated in uptake buffer (10 mM HEPES, 5 mM Tris, 140 mM NaCl, 2 mM KCl, 1 mM CaCl2, 1 mM MgCl2, and 1 mM ^14C-nonlabeled AMG pH 7.4) containing ^14C-labeled (8 uM) and inhibitor or dimethyl sulfoxide (DMSO) vehicle at 37° C. for 2 h. Cells were washed twice with washing buffer (pretreatment buffer containing 10 mM AMG at room temperature) and then the radioactivity was measured using a liquid scintillation counter.

Sequences of proteins named here, by UniProt entry; tags and fusion partners are left off. A change or cut given only in a name is not applied to a line headed by its entry.
UniProt P31639: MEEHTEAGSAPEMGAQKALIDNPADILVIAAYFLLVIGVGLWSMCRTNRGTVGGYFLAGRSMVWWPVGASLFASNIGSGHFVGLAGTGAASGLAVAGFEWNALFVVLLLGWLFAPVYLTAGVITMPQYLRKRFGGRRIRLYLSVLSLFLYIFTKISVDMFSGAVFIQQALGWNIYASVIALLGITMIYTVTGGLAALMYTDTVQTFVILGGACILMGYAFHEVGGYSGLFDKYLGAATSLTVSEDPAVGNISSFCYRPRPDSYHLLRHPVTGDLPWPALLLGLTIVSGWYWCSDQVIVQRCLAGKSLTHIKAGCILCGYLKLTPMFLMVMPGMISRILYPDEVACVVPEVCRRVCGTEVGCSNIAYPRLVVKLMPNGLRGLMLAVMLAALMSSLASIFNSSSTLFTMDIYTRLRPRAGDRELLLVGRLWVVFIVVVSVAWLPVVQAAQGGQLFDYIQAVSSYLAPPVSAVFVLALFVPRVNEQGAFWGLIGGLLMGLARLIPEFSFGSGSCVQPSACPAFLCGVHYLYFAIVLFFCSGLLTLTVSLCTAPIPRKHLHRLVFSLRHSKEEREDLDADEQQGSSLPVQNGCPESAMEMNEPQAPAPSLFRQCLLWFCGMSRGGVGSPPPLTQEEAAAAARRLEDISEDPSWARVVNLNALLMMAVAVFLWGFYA

| IC50 [µM] | SMILES |
| --- | --- |
| 1.23 | OC[C@H]1OC(c2cccc(Cc3nnc(-c4cccnc4)s3)c2)[C@H](O)[C@@H](O)[C@@H]1O (stereo partly drawn) [Example 36, (2R,3S,4R,5R)-2-(Hydroxymethyl)-6-(3-((5-(pyridin-3-yl)-1,3,4-thiadiazol-2-yl)methyl)phenyl)-tetrahydro-2H-pyran-3,4,5-triol] |
| 1.42 | OC[C@H]1OC(c2cccc(Cc3nnc(-c4ccccc4)s3)c2)[C@H](O)[C@@H](O)[C@@H]1O (stereo partly drawn) [Example 35, (2R,3S,4R,5R)-2-(Hydroxymethyl)-6-(3-((5-phenyl-1,3,4-thiadiazol-2-yl)methyl)phenyl)-tetrahydro-2H-pyran-3,4,5-triol] |
